Results reported in patent US6673802B2, “Compounds specific to adenosine A3 receptor and uses thereof” (OSI Pharmaceuticals, Inc., priority 2000, dated 2004).

Chains of the proteins cited; added tags and fusions are not shown.
UniProt P0DMS8, whole entry: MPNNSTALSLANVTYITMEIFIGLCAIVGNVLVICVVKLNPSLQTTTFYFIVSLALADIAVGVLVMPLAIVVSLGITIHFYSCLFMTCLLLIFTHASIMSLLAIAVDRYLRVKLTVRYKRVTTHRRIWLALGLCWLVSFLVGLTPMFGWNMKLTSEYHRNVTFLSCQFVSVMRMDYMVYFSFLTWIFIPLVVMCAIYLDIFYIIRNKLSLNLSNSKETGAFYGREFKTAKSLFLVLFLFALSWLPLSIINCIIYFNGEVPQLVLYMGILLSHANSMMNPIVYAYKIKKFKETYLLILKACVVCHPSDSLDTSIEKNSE

Target: human A3 receptor (Homo sapiens, UniProt P0DMS8)
Test: Displacement binding, yeast membranes expressing hA3R
Conditions: read-out: IC50 hA3R

- IC50: 23.6 nM
Compound: C[C@H](Cc1ccccc1)Nc1ncnc2c1ncn2[C@@H]1O[C@H](CO)[C@@H](O)[C@H]1O [(R)-PIA]
